Experimental data reported in PMC7429951 (Journal of Medicinal Chemistry, 2020).

What was measured:
[1] = in vitro; conditions: human, HEK293 cells (embryonal kidney)
[2] = in vitro; conditions: human, A549 cells (lung carcinoma)
[3] = in vitro; conditions: human, HepG2 cells (hepatocellular carcinoma)

Measured: IC50

O=C(CS)Nc1ccc(Cl)c(Cl)c1 [Compound 5, reference compound]
> 100 µM: all assays above
